Assay results from US20230256017A1, “METHODS OF MAKING CHIMERIC ANTIGEN RECEPTOR-EXPRESSING CELLS” (Novartis AG, priority 2020, published 2023).

Assays:
T cells [1] = assay: T cell expansion with cytokines after TCR stimulation (cell surface staining); type: cell-based; settings: αCD3/αCD28 beads plus indicated cytokine
Protocol: Previously frozen T cells were thawed and contacted with αCD3/αCD28 dynal beads (cell to bead ratio of 1 to 3) in the presence of indicated cytokines at day 0. From day 3, twice more T cell growth media (RPMI1640, 10% FBS, 2 mM L-glutamin, 100 µM non-essential amino acids, 1 mM sodium pyruvate, 10 mM Hepes, 55 µM β-mercaptoethanol, 10% FBS, and 100 U/ml of penicillin-streptomycin) was added to the plate with indicated cytokines (without cytokine, rhIL2 (50 IU/ml, Novartis), IL6 (10 ng/ml, R&D systems), IL7 (10 ng/ml, Peprotech), IL15 (10 ng/ml, Peprotech), and IL21 (10 ng/ml, Peprotech)) at day 3, 5, 6, 9, 12, 15, and 18. Cells treated without cytokine, IL6, or IL21 were cultured until day 18 and cells treated with IL2, IL7, or IL15 were cultured until day 25.
Cells were harvested at indicated time points and then stained with live/dead dye (eFluro780, eBioscience), CD3 (BioLegend, clone#: OKT3), CD4 (BioLegend, clone#: OKT4), CD8 (BD Bioscience, clone#: RPA-T8), CD45RO (BioLegend, clone#: UCHL1), CCR7 (BioLegend, clone#: G043H7), CD27 (BD Horizon, clone#: L128), CD127 (BioLegend, clone#: A019D5), CD57 (BioLegend, clone#: HCD57), CD126 (BioLegend, clon#: UV4), and CD130 (R&D Systems, clone#: 28126) antibodies. The cells were acquired by FACS Fortessa and then FlowJo program was used for data analysis.

T cells [2] = assay: Cytokine process: T cell differentiation status and CAR transduction by flow cytometry; type: cell-based; settings: purified T cells incubated with cytokine, no other activation stimulus
Protocol: After obtaining an apheresis within 24 hours of collection, T cells were purified and the purity of the T-cells obtained was assessed by flow cytometry. The T cells were frozen and placed in the liquid nitrogen until required for use.
IL-7 and IL-15 were prepared at 1,000 folds of the final concentration required. IL-2 was prepared by a 10-fold dilution in media.
At the time of plating, the cells were transduced with a lentiviral vector with a multiplicity of infection (MOI) of 1. The specific volume of vector to be transduced was calculated based on the multiplicity of infection (MOI) and concentration (titer) of the vector lot in use. The titer and the MOI were measured based on primary T cell lines.
In the conditions where cytokines alone were utilized for stimulation, the cells were resuspended post wash at a concentration of 1E7/ml and added to a conical tube that already contained the cytokines depending on the condition (Table 19). […]
On the following day the cells were harvested, the concentration and viability of the cells was noted. Their function was measured using a cytotoxicity and proliferation (EDU) incorporation assay. […]
The cells were immunophenotyped for T cell differentiation status and transduction of the CAR was assessed using flow cytometry. […] After the incubation, the cells were washed twice and fixed prior to being analyzed on the BD fortessa.

| Substance | T cell expansion (T cells [1]) | maintenance of self-renewing T cells (CD45RO-CCR7+) (T cells [2]) |
| --- | --- | --- |
| IL2: cytokine present during activation of T cells with αCD3αCD28 beads | enhanced T cell expansion |  |
| IL-2: cytokine used in T cell culture |  | maintained self-renewing T cells in vitro |
